We go through one substance from article PMC6930649, “Four New Iridoid Metabolites Have Been Isolated from the Stems of Neonauclea reticulata (Havil.) Merr. with Anti-Inflammatory Activities on LPS-Induced RAW264.7 Cells” (Molecules, 2019).

For the data set, the system named is RAW264.7 cells. As to the kind of experiment: Cell viability assay (MTT) in RAW264.7 cells. The format is cell-based, mouse. Particulars: 6.25-100 μg/mL, 24 h, LPS 100 ng/mL, mean ± SD of three independent experiments. On the procedure: RAW264.7 the mouse macrophages cell line (Bioresource Collection and Research Center (BCRC) Number: 60001) was obtained from Food Industry Research and Development Institute (Hsinchu, Taiwan). All of the cell lines were cultured in DMEM containing 10% (v:v) fetal bovine serum (FBS), penicillin and streptomycin (100 U/mL), 4 mM L-glutamine (100 U/mL). The cells were cultured in a humidified incubator under 5% CO2 at 37 °C. The RAW264.7 cells (5 × 10^5 cells per mL) were seeded into plates for 24 h before treatment.
The in-vitro cell viability activity of MeOH extracts, partition fractions and pure compounds were determined by the MTT assay. RAW264.7 cells (5 × 10^4/well) were seeded in 96-well plates and incubated for 24 h. The cells were treated with MeOH extracts and contain partition fractions in various concentrations (0, 62.5, 125, 250, 500 and 1000 μg/mL), compounds and positive control (0, 6.25, 12.5, 25, 50 and 100 μg/mL) in the presence or absence of LPS (100 ng/mL) for 24 h. After 24 h, the medium was replaced with a medium containing 0.5 mg/mL MTT solution and incubated at 37 °C for 4 h. After the end of the MTT reaction, we used 0.04 N HCl /isopropanol solution to dissolve the formazan crystals. The absorbance was measured at 570 nm using a microplate reader (Molecular Devices, LLC.). The cell viability was calculated and compared with the control group.

Marks after values point to notes of the source that are not given here.

Turning to (+)-pinoresinol [Compound 11], the CC50 was >100 ^b μg/mL.
